# Literature values as cited in patent US20260062376A1, “SQUARAMIDE DERIVATIVES AS CB1 ALLOSTERIC MODULATORS” (RESEARCH TRIANGLE INSTITUTE, priority 2022, published 2026).
# Experiments:
# CB1R [1] = biological target: T1, CB1R (Homo sapiens (Human), UniProt P21554); settings: cited from earlier work
# CB1R [2] = biological target: T1, CB1R; settings: cited from earlier work; remark: listed apart in the source
structure (smiles),measurement,setting,value
O=C(Nc1ccc(Cl)cc1)Nc1cccc(-c2cccc(N3CCCC3)n2)c1 [PSNCBAM-1],Efficacy of agonists in several functional assays,CB1R [1],reduces the efficacy of agonists
same,"Binding cooperativity with CP55,940",CB1R [2],positive binding cooperativity
